# From PubChem BioAssay AID651671 (Sanford-Burnham Center for Chemical Genomics, 2012)
# This is a selection; strong and weak results do not stand in their true shares. The source made the active and inactive calls.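 How the source made its calls: active means activation of at least 7% in one or more replicates; inactive means the rest.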
# Assay: alpha-DG glycosylation enhancers, retest, confirmation, single concentration, Pro5-aDG cells (AID 651671);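 further: cells exposed to compound for two days before detection; 0% = DMSO-treated Pro5 cells and 100% = DMSO-treated B10-LARGE cells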
# Conditions: IIH6 AlphaLISA, stronger effect = higher value, screened at 10 µM (by protocol), scaled to LARGE-overexpressing B10 cells as 100%
smiles,measurement,value
CCCCn1nnnc1C(c1cccs1)N1CCC(n2c(=O)[nH]c3ccccc32)CC1 (stereo unspecified),activation,inactive: -2.09%
